Test results: ChEMBL document CHEMBL3621093, “Design, synthesis and evaluation of thiohydantoin derivatives as potent topoisomerase I (Top1) inhibitors with anticancer activity” (Eur J Med Chem, 2015)

System: Sf9
Experiment: Selectivity ratio of EC50 for Leishmania donovani Top1(large/ small subunits) expressed in Escherichia coli BL21 (DE3) pLysS cells to EC50 for wild type recombinant human Top1 expressed in baculovirus infected insect Sf9 cells

For `COc1ccc(-c2ccc(/C=C3/NC(=S)NC3=O)s2)cn1`, the Ratio EC50 was 5.
